The text below walks through data of ChEMBL document CHEMBL3621069 (Bioorg Med Chem Lett, 2015).

In this experiment the target is Tyrosine-protein kinase SYK (Homo sapiens, UniProt P43405). Put plainly: Inhibition of purified full-length human SYK pre-incubated for 30 mins at room temperature before Ulight-TK peptide substrate addition and measured 1 hr after substrate addition by cell free kinase assay.

For the compound `Cc1nn(-c2ccnc(Nc3ccc4c(c3)c(Cl)cn4C)n2)cc1CN1CC(O)C1`, the 50% inhibitory concentration (IC50) (in general, the concentration that inhibits the measured activity by half) was 0.7 nM.
`Cc1nn(-c2ccnc(Nc3ccc4c(cnn4C)c3)n2)cc1CN1CC(O)C1` gave an IC50 of 19.5 nM.
